Laboratory results reported in ChEMBL document CHEMBL6127110, “Pyrazolo-Pyrimidinones with Improved Solubility and Selective Inhibition of Adenylyl Cyclase Type 1 Activity for Treatment of Inflammatory Pain” (J Med Chem, 2024).

Experiment: in vitro
Settings: dog, MDCK

In order of falling recovery:
1. CCc1cc(=O)[nH]c(-n2nc(C)cc2NCc2cccc(C(F)(F)F)c2)n1  47%
2. CCc1cc(=O)[nH]c(-n2nc(C)cc2N[C@H](C)c2cccc(C(F)(F)F)c2)n1  47%
3. CCc1cc(=O)[nH]c(-n2nc(C)cc2N[C@H](C)C2CCCC2)n1  35%
